Values quoted from earlier work as cited in patent US20100012891A1, “Tooth Whitening Compositions and Methods” (priority 2008, published 2010).

Conditions: chlorite ion/chlorous acid equilibrium

Question: With chlorite [chlorite ion] as the substance, how does the pKa read?
Answer: The pKa was 1.8.
